The source of these data is PubChem BioAssay AID2023 (NMMLSC, 2009).

Molecules are shown by their SMILES. This is a selection; strong and weak results do not stand in their true shares. The source made the active and inactive calls.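 Rule for the calls: active = GFP response vs DMSO above a set limit, about the screen mean plus 3 SD (cut at about 150% in these data); inconclusive = under 70 cell events counted for the yeast strain; inactive = the rest.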

This test is described as follows: modulators of LAP4-GFP expression in yeast, primary screen, S. cerevisiae, multiplex flow cytometry, MLPCN library (AID 2023). Particulars: 3 h, at 10 µM, active compounds read high, median GFP as percent of DMSO wells.
For `CN(C(=O)Cc1ccc(Cl)c(Cl)c1)[C@@H]1CCCC[C@H]1N1CCCC1`, the GFP response vs DMSO is inactive: 121%.
As to `CC(C)/C=N\N=C(\N)N[N+](=O)[O-]`, the GFP response vs DMSO was inactive: 102%.
As for `O=[As](O)(c1ccccc1Br)c1ccccc1Br`, the figure is inactive: 95.2%.
`CC1(CBr)Cn2c(nc3ccccc3c2=O)S1` (configuration not stated): the GFP response vs DMSO is inactive: 103%.
As to `COc1ccccc1CNC(=O)COC(=O)C(O)(c1ccccc1)c1ccccc1`, the GFP response vs DMSO is inactive: 98.5%.
Under `Clc1n[nH]nc1-c1nn[nH][15n]1` stands inactive: 96.9%; under `CC(C)(C)C(=O)NC(Sc1ncccn1)C(Cl)(Cl)Cl` (configuration not stated), inactive: 102%; under `CCC1=CC2Cc3nc4ccc(Cl)cc4c(N)c3C(C1)C2` (configuration not stated), inactive: 94.4%.
As for `O=P1(Nc2ccccn2)COc2ccccc2OC1`, the figure is inactive: 99.9%.
Under `CCOP(=O)(NC(=NC(C)c1ccccc1)NC(C)c1ccccc1)OCC` (configuration not stated) stands inactive: 87.5%; under `CN(CCCl)Cc1cc(Cl)c(NC2=NCCN2)c(Cl)c1`, inactive: 115%.
As to `CCOP(=O)(Nc1ccc(C)cn1)OCC`, the GFP response vs DMSO is inactive: 99.8%.
As for `Nc1cccc([As](=O)(O)c2ccccc2)c1`, the figure is inactive: 89%; as for `NS(=O)(=O)c1cccc(NC(=O)COC(=O)C(O)(c2ccccc2)c2ccccc2)c1`, inactive: 96.9%.
Under `O=P1(Nc2ccc(Br)cn2)COc2ccccc2OC1` stands inactive: 94.7%; under `O=[As](O)(c1cccs1)c1cccs1`, inactive: 94.6%; under `Cc1ccc(OCC(=O)OC2CN3CCC2CC3)cc1` (configuration not stated), inactive: 98.8%.
As for `O=P1(Nc2ncccn2)COc2ccccc2OC1`, the figure is inactive: 98.8%; as for `CN(C)C1(CNC(=O)c2ccc(S(C)(=O)=O)cc2)CCCCC1`, inactive: 94.3%; as for `O=C(/C=C/c1ccccc1)OC1CN2CCC1CC2` (configuration not stated), inactive: 101%.
In the case of `Cc1nn(-c2ccccc2)c2c1P(=O)(N1CCOCC1)N(C)C(c1ccccc1)=N2` (configuration not stated), the GFP response vs DMSO is inactive: 102%.
As for `Cc1ccc(C(=O)OC2CN3CCC2CC3)cc1` (configuration not stated), the figure is inactive: 107%; as for `CC1CCC(C(C)C)C(OP(=O)(Nc2ccccn2)c2ccccc2)C1` (configuration not stated), inactive: 102%.
As to `N#CCCN(C(=O)COC(=O)C(O)(c1ccccc1)c1ccccc1)c1ccc(F)cc1`, the GFP response vs DMSO is inactive: 101%.
As to `CCOP1(=S)c2c(C)nn(CCC#N)c2N=C(c2ccc(F)cc2)N1C` (configuration not stated), the GFP response vs DMSO was inactive: 98.3%.
As for `CN(C(=O)Cc1ccccc1)[C@@H]1CC[C@]2(CCCO2)C[C@H]1N1CCCC1`, the figure is inactive: 128%; as for `CN(C)C(=O)c1cc([N+](=O)[O-])cc2c1-c1c(cc([N+](=O)[O-])cc1[N+](=O)[O-])C2=O`, inactive: 138%.
As for `O=[N+]([O-])c1ccc2c(c1)nnn2O`, the figure is inactive: 103%.
For the compound `CN(C(=O)Cc1ccc(Cl)c(Cl)c1)[C@H]1CC[C@@]2(CCCO2)C[C@@H]1N1CCCC1`, the GFP response vs DMSO is inactive: 108%.
Under `NC(=O)Nc1ccc([As](=O)(O)O)cc1` stands inactive: 104%; under `O=C(O)COc1ccc([As](=O)(O)O)cc1[N+](=O)[O-]`, inactive: 116%; under `Nc1ccccc1[As](=O)(O)c1ccccc1`, inactive: 98.4%.
As for `CCOP1(=S)c2c(C)nn(CCC#N)c2N=C(c2ccccc2F)N1C` (configuration not stated), the figure is inactive: 101%; as for `O=P(Nc1nccs1)(c1ccccc1)c1nc2ccccc2s1` (configuration not stated), active: 151%.
As for `O=P(Nc1nccs1)(Oc1ccccc1)Oc1ccccc1`, the figure is inactive: 96.6%; as for `CS(=O)(=O)c1cc([N+](=O)[O-])c2no[n+]([O-])c2c1`, inactive: 115%; as for `COc1cc(C2NCCC3(OCCO3)C2(C)C)cc(OC)c1OC` (configuration not stated), inactive: 92.1%.
`CCOP(=O)(Nc1cccc2ccccc12)OCC`: the GFP response vs DMSO is inactive: 125%.
As for `Nc1cccc2c([As](=O)(O)O)cccc12`, the figure is inactive: 96.5%; as for `Cc1ccc(NCCc2c([N+](=O)[O-])cc([N+](=O)[O-])cc2[N+](=O)[O-])cc1`, inactive: 101%; as for `CCCOP(=S)(Nc1nc(N)cc(=O)[nH]1)OCCC`, inactive: 97.2%.
Under `O=[As](O)(c1cccc(O)c1)c1cccc(O)c1` stands inactive: 91.2%; under `Cc1cccc(OCC(=O)OC2CN3CCC2CC3)c1` (configuration not stated), inactive: 100%; under `O=C(OC1CN2CCC1CC2)c1ccc(Cl)cc1` (configuration not stated), inactive: 96.5%.
Under `COc1cc(C(=O)NCC2(N3CCOCC3)CCCCC2)cc(Cl)c1OC(C)C` stands inactive: 96.8%; under `O=[As](O)(O)c1cccnc1`, inactive: 106%.
Consider `CS(=O)(=O)c1ccc(Cl)c(NC(=O)COC(=O)C(O)(c2ccccc2)c2ccccc2)c1`, for which the GFP response vs DMSO was inactive: 100%.
With `COc1ccc(N/C(=N/P(=O)(N2CCOCC2)N2CCOCC2)N2CCOCC2)cc1`, the GFP response vs DMSO is inactive: 104%.
Under `COc1ccc2nc(NP(=O)(c3ccccc3)c3ccccc3)sc2c1` stands inactive: 111%.
Consider `COc1cc(I)ccc1[As](=O)(O)O`, for which the GFP response vs DMSO is inactive: 112%.
As for `Cc1c2c(nc3ccccc13)SC(C(Cl)Cl)C2` (configuration not stated), the figure is inactive: 103%.
Under `O=C(OC1CN2CCC1CC2)C12CC3CC(CC(C3)C1)C2` (configuration not stated) stands inactive: 109%; under `Cc1cc(=O)[nH]c(N[N+](=O)[O-])n1`, inactive: 94.2%.
As for `CCN(CC)C(=S)SC(NC=O)C(Cl)(Cl)Cl` (configuration not stated), the figure is inactive: 112%; as for `CC(C)NC(=O)NP(=O)(Oc1ccccc1)Oc1ccccc1`, inactive: 93.1%; as for `O=[N+]([O-])c1cc([N+](=O)[O-])c(-c2ccn[nH]2)s1`, inactive: 113%.
For the compound `ClCCSc1nnc(-c2cccnc2)o1`, the GFP response vs DMSO is inactive: 88%.
Consider `CC(C)c1ccc(OP(=O)(Nc2ccccn2)Oc2ccccc2F)cc1` (configuration not stated), for which the GFP response vs DMSO was inactive: 106%.
As for `Cc1ccc(OP(=O)(Nc2ccc([N+](=O)[O-])cn2)Oc2ccc(C)cc2)cc1`, the figure is inactive: 94%; as for `Cc1ccc2nc3c(c(C)c2c1)CC(C(Cl)Cl)S3` (configuration not stated), inactive: 98.1%; as for `O=[As](O)(c1ccc(O)cc1)c1ccccc1O`, inactive: 108%.
As for `C[As](=O)(O)c1cccc(C(=O)O)c1`, the figure is inactive: 95%.
Under `COc1cc(C(=O)NCC2(N3CCOCC3)CCCCC2)ccc1OCC(C)C` stands inactive: 98.3%; under `Cc1cc(SC(NC=O)C(Cl)(Cl)Cl)ncn1` (configuration not stated), inactive: 94.6%; under `O=P(Nc1ccccn1)(c1cccc2ccccc12)c1cccc2ccccc12`, inactive: 88%.
Regarding `O=[N+]([O-])c1ccc(Nc2ccc(Oc3ccc([N+](=O)[O-])cc3[N+](=O)[O-])cc2)c([N+](=O)[O-])c1`, the GFP response vs DMSO was inactive: 87.6%.
As for `Cc1cc(SC(NC(=O)c2ccccc2)C(Cl)(Cl)Cl)nc(C(C)C)n1` (configuration not stated), the figure is inactive: 90.9%; as for `CCOC(=O)Nc1ccc([As](=O)(O)O)c(O)c1`, inactive: 92.4%; as for `CCC(C)N(CC(C)C)C(=S)SC(NC(C)=O)C(Cl)(Cl)Cl` (configuration not stated), inactive: 99.5%.
As for `O=C(OC1CN2CCC1CC2)c1cccc([N+](=O)[O-])c1` (configuration not stated), the figure is inactive: 97.6%; as for `CCOC(=O)c1ccc(NC(=O)C(C)(CCl)SC)cc1` (configuration not stated), inactive: 109%.
As for `O=C(COc1ccccc1)OC1CN2CCC1CC2` (configuration not stated), the figure is inactive: 87.1%; as for `O=C(Nc1ccncc1[N+](=O)[O-])c1ccc([N+](=O)[O-])cc1[N+](=O)[O-]`, inactive: 103%; as for `COP1(=S)c2c(C)nn(CCC#N)c2N=C(c2ccc(F)cc2)N1C` (configuration not stated), inactive: 105%.
For `CC1CCN(C(=O)Oc2c(Cl)cc(Cl)c3cccnc23)CC1`, the GFP response vs DMSO is inactive: 96%.
Regarding `CC(C)=N/N=C(\N)N[N+](=O)[O-]`, the GFP response vs DMSO is inactive: 101%.
Under `CN(C)C(=O)OCCc1n(C)cc[n+]1C` stands inactive: 98.2%; under `CCN(/C(=N/P(=O)(N1CCOCC1)N1CCOCC1)N1CCOCC1)c1ccc(OC)cc1`, inactive: 85.6%.
For the compound `Nc1ccc([As](=O)(O)c2ccc(N)cc2)cc1`, the GFP response vs DMSO was inactive: 106%.
On to `C[N+]1=C2C=CC=CC=C2SC12C([N+](=O)[O-])=CC([N+](=O)[O-])=C[C-]2[N+](=O)[O-]` (configuration not stated), for which the GFP response vs DMSO is active: 181%.
On to `Cc1ccc(NP(=O)(Oc2ccccc2)Oc2ccccc2)nc1`, for which the GFP response vs DMSO is inactive: 95%.
Under `O=[N+]([O-])c1cc([N+](=O)[O-])c(CCNc2ccccc2)c([N+](=O)[O-])c1` stands inactive: 145%; under `CCc1nc2c(n1)c1c(non1O)c1c2no[n+]1[O-]`, inactive: 106%; under `CC(=O)N1C2C3N(C(C)=O)C1C1N(C(C)=O)C(C(N1C(C)=O)N3C(C)=O)N2C(C)=O`, inactive: 101%.
As for `O=[N+]([O-])c1cccc2n[nH]nc12`, the figure is inactive: 96.9%; as for `COc1ccc(C2=NCC(CBr)S2)cc1` (configuration not stated), inactive: 92.7%; as for `O=C(O)CNc1ccc([As](=O)(O)O)cc1`, inactive: 89.2%.
Take `O=[N+]([O-])c1cccc(NC2=NCC(CBr)S2)c1` (configuration not stated): the GFP response vs DMSO was inactive: 126%.
As to `O=[N+]([O-])c1ncn(CCn2ncnc2[N+](=O)[O-])n1`, the GFP response vs DMSO is inactive: 103%.
Regarding `CC(C)(C)C(=O)NC(Sc1ccncn1)C(Cl)(Cl)Cl` (configuration not stated), the GFP response vs DMSO was inactive: 101%.
Under `O=C(Nc1cc([As](=O)(O)O)ccc1O)c1ccccc1` stands inactive: 80.5%.
`Nc1cccc2ccc([As](=O)(O)O)cc12`: the GFP response vs DMSO was inactive: 94.2%.
Turning to `CCN(N=Nc1nonc1N)c1nonc1N`, the GFP response vs DMSO was inactive: 92.6%.
Under `O=[N+]([O-])c1cc([N+](=O)[O-])c(CCN2CCOCC2)c([N+](=O)[O-])c1` stands inactive: 87.7%.
Under `CCOP(=O)(Nc1ccccc1)OCC` stands inactive: 97.1%; under `Cc1cc(SC(NC(=O)c2ccc(F)cc2)C(Cl)(Cl)Cl)ncn1` (configuration not stated), inactive: 87.3%; under `CN(C(=O)Cc1ccc(Cl)c(Cl)c1)[C@H]1CCCC[C@@H]1N1CCCC1`, inactive: 111%.
As for `O=P(Nc1nc2ccc(Cl)cc2s1)(c1ccccc1)c1ccccc1`, the figure is inactive: 102%; as for `O=C(O)c1ccccc1[As](=O)(O)O`, inactive: 93.6%.
`CC(=O)Nc1ccc([As](=O)(O)O)cc1`: the GFP response vs DMSO was inactive: 91.5%.
Under `Oc1ccccc1CNc1ccccn1` stands inactive: 94.3%; under `Cc1c2non([O-])c-2c(C)[n+](=O)[n+]1[O-]`, inactive: 123%.
